Laboratory results from PubChem BioAssay AID1537 (The Scripps Research Institute Molecular Screening Center, 2009).
Only a part is listed here, and it is no random draw. Activity calls are given as the source filed them.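 How the source made its calls: active means inhibition above the hit cutoff derived for the primary screen (cut at about 15% in these data); inactive means the rest.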

Protein sequences, listed by entry. Tags and fused reporters are not part of them. Lines headed by an entry give the natural chain unless they say otherwise; changes in a name come on top.
UniProt O75884: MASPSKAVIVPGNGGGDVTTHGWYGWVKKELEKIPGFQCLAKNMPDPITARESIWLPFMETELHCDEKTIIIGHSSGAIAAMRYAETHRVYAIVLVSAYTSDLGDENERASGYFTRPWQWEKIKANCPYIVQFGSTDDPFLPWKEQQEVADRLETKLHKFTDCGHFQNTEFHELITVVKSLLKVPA

Molecular target: Serine hydrolase RBBP9 (Homo sapiens) (UniProt O75884)
Assay: human RBBP9 inhibitors, retest, confirmation, biochemical, fluorescence polarization, FP-Rh probe, triplicate (AID 1537);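 further: 0% = RBBP9 with DMSO and 100% = wells lacking RBBP9 protein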
Conditions: recombinant RBBP9, FP-Rh probe fluorescence polarization; at 7.94 µM; stronger effect = higher value

Structure (SMILES) | inhibition
O=[N+]([O-])c1cc([N+](=O)[O-])c(CCNc2ccccc2)c([N+](=O)[O-])c1 | active: 20.9%
CS(=O)(=O)c1cc([N+](=O)[O-])c2no[n+]([O-])c2c1 | active: 48.8%
